Results taken from ChEMBL document CHEMBL4342477, “Single Nucleotide Polymorphisms in the Melanocortin His-Phe-Arg-Trp Sequences Decrease Tetrapeptide Potency and Efficacy” (ACS Med Chem Lett, 2020).

The chains behind the UniProt entries cited, without tags or fusion partners. Where a name states a change or a piece, a line headed by the entry shows the natural chain unless it says otherwise.
UniProt Q01727: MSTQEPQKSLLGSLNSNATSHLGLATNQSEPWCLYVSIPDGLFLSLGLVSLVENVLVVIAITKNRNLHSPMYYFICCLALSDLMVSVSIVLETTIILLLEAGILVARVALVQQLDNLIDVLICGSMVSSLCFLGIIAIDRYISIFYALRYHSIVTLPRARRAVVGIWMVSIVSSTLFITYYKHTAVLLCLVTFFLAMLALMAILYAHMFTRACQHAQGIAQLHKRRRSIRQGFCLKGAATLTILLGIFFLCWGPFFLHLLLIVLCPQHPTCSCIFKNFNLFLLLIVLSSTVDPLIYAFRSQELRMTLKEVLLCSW

Molecular target: Melanocyte-stimulating hormone receptor (Mus musculus, UniProt Q01727)
Test: Agonist activity at mouse melanocortin receptor 1 expressed in HEK293 cells assessed as stimulation of cAMP accumulation incubated for 2 hrs by cAMP AlphaScreen assay
Assay type: functional, cell-based

Row | SMILES | EC50 [nM]
1 | CC(=O)N[C@@H](Cc1cnc[nH]1)C(=O)N[C@H](Cc1ccccc1)C(=O)N[C@@H](CCCN=C(N)N)C(=O)N[C@@H](Cc1c[nH]c2ccccc12)C(N)=O | 16
2 | CC(=O)N[C@@H](Cc1c[nH]cn1)C(=O)N[C@@H](Cc1ccccc1)C(=O)N[C@@H](CCCN=C(N)N)C(=O)N[C@@H](Cc1c[nH]c2ccccc12)C(N)=O | 3000
